Data: patent US20110086005A1, “MODULATING INTERSTITIAL PRESSURE AND ONCOLYTIC VIRAL DELIVERY AND DISTRIBUTION” ([…] INC., priority 2008, published 2011)

Tested on: subcutaneous B16 tumors
Assay: Systemic delivery of intravenous reovirus to subcutaneous B16 tumors after PC-61 and/or IL-2 preconditioning (viral titers from tumor lysates)
Type: in vivo, C57B1/6 mice
Conditions: preconditioning before intravenous reovirus 3.75×10^9 TCID50; FIG. 3
Procedure: C57B1/6 mice were seeded with subcutaneous B16 tumors. Nine days later, mice received an intraperitoneal injection of anti-CD25 antibody PC-61 or a control IgG. Twenty-four hours later, mice were injected intraperitoneally with PBS or with recombinant human IL-2 at a dose of 75,000 units/injection three times a day for 3 d. On the fourth day, a single further injection of IL-2 was given. Two hours after this last injection of IL-2/PBS, mice received an intravenous injection of reovirus (3.75×10^9 TCID50) followed 24 h later by a second similar injection of virus. 72 h later, tumors were explanted and dissociated and viral titers recovered from freeze/thaw lysates of tumors from mice treated as shown were determined (3 mice per group).
Therefore, the therapeutic efficacy of PC-61 or CPA (which mimics the effects of PC-61)+IL-2+reovirus was tested wherein the viral dose of reovirus was reduced to 1×10^8 TCID50 per injection. […] None of the mice treated with the preconditioning regimens and intravenous reovirus developed toxicities. […] Therefore, preconditioning with CPA+IL-2 enhanced the therapy produced by systemic delivery of intravenously delivered reovirus to a level indistinguishable from that induced by PC-61+IL-2.
This is due to IL-2-induced vascular leakage at the tumor site, which increased the ability of systemically delivered virus to localize into established tumors.

For IL-2: recombinant human IL-2, the “localization of intravenously delivered reovirus to subcutaneous established B16 tumors” value was “enhanced the localization”.
